We go through 1 molecule from patent US20230167200A1 (BIOTHEUS, published 2023).

Assay [1] deals with anti-PD-1/TIGIT/human serum albumin trispecific antibody Bi-70-71. Put plainly: BLI (Octet), biotinylated human PD-1 on SA sensor, antibody 100 nM, then TIGIT, then HSA.
Assay [2] has as its target anti-PD-1/TIGIT/human serum albumin trispecific antibody Bi-72-73. The description is as above.

B1: biotinylated-labeled human PD-1 (ACROBiosystems) (receptor, UniProt Q15116 25-167, looked up)
chain: LDSPDRPWNPPTFSPALLVVTEGDNATFTCSFSNTSESFVLNWYRMSPSNQTDKLAAFPEDRSQPGQDCRFRVTQLPNGRDFHMSVVRARRNDSGTYLCGAISLAPKAQIKESLRAELRVTERRAEVPTAHPSPSPRPAGQFQ
modifications: biotinylated
notes: Bought protein, loaded on the SA sensor
Take B1: the binding result in assay [1] and in assay [2] was “binds” throughout.
